miR-21 FLuc: raises the signal of a miR-21 reporter; HeLa miR-21 FLuc reporter, luciferase, 48 h; Potency, µM (top dose mostly 38.3 µM); AID 2288; 340,000 tested, under 10 active; active = well fitted rising curve with a large enough effect; inconclusive = small, poorly fitted or top-dose-only effect; inactive = no such curve, though single readings can be large or run the other way;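 note: miR-21 action dims this reporter so a rising signal means less miR-21 action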
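Using DMEM plus 10% FBS, HeLa miR-21-FLuc cells are incubated with test compounds (final up to about 40uM) for 48 hours; firefly luciferase signal is then imaged following reagent-mediated lysis.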
TDP1 inh: inhibitors of human tyrosyl-DNA phosphodiesterase TDP1 | AID 485290 | Potency, µM (series often up to 130 µM), actives largely listed as inhibitors | recombinant TDP1, AlphaScreen DNA substrate cleavage | Q9NUW8 | hit rate 0.28% among 350,000; also: nearly all actives have a fitted effect of over 40% in size
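Recombinant E. coli-expressed Tdp1 (1 nM) preincubated with compound 15 min at RT, then 5'-biotin/3'-phosphotyrosine-FITC DNA substrate (15 nM) added for 5 min. AlphaScreen beads (10 ug/ml) added, 10 min RT; tyrosine-FITC cleavage read as signal loss.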
uPA surface inh: cell surface uPA generation inhibition. cell surface uPA generation assay, qHTS. Potency, µM (highest dose often 38.3 µM), hits mostly inhibitors. hit rate 0.31% among 330,000; active = well fitted inhibition curve with a large enough effect; inconclusive = small, poorly fitted or top-dose-only effect; inactive = no such curve, though single readings can be large or run the other way; tested in mouse RAW 264.7 cells; also: nearly all actives have a fitted effect of over 55% in size
DT40 TDP1 no CPT: qHTS for Inhibitors of human tyrosyl-DNA phosphodiesterase 1 (TDP1): qHTS in cells in absence of CPT; DT40 Tdp1-/- hTDP1 cells, no CPT, ATP luminescence, 48 h; Potency, µM (top dose mostly 46.2 µM), usual class: inhibitors; hit rate 15% among 420,000; AID 686978, 2013; also: nearly all actives have a fitted effect of over 55% in size
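Compound effects on proliferation are scored in DT40 Tdp1-/-;hTDP1 cells in the absence of CPT. ATP levels (CellTiter-Glo luminescence) are recorded after a ≥48 hr, 37 °C incubation.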
TDP1 cell CPT: growth inhibition of DT40 Tdp1-/-;hTDP1 cells with camptothecin (screen for TDP1 inhibitors) | chicken DT40 Tdp1-/-;hTDP1 cells + 20 nM CPT, ATP luminescence, 48 h | Potency, µM (doses to about 46.2 µM), actives largely listed as inhibitors | hit rate 12% among 420,000 | AID 686979; also: nearly all actives have a fitted effect of over 55% in size
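Cell growth measured by CellTiter-Glo luminescence after a minimum 48 h, 37 C compound exposure with 20 nM CPT in Tdp1-knockout DT40 cells stably expressing hTDP1, seeded 400/well; qHTS titration format.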
Hits are given with their value; i = inactive; ? = inconclusive; nt = no result; [ ] = another dose, or the depositor's remark. Hits are enriched below; roughly 16% of the tested compounds scored in any of these assays. Unless noted, calls follow the shape of the dose curve; as a rule, active = well fitted curve in the direction sought with a large enough effect; inconclusive = small, poorly fitted or top-dose-only effect, or another doubt; inactive = no such curve, though single readings can be large; an effect the other way counts as inactive or inconclusive.

SMILES	miR-21 FLuc	TDP1 inh	uPA surface inh	DT40 TDP1 no CPT	TDP1 cell CPT
Fc1ccccc1COc1ccc(/C=N/NC(=S)NCc2ccccc2)cc1	i	i	i	13µM	12µM
CNC(=S)N/N=C/c1cccc(OCc2ccccc2F)c1	i	i	i	23µM	?
CCOc1ccc(/C=N/NC(=O)CC(=O)NCc2ccccc2)cc1	i	i	i	i	i
CCNC(=S)N/N=C/c1cccc(/C=N/NC(=S)NCC)c1	i	i	i	i	i
CCNC(=S)N/N=C/c1cccc(OCc2c(F)cccc2Cl)c1	i	i	i	16µM	?
COC(=O)C1C2C=CC3(CN(C4CCCC4)C(=O)C13)O2 (configuration not stated)	i	i	i	i	i
Cc1cc(C)cc(NC(=O)CSc2cc(C)[nH]c(=O)n2)c1	i	i	nt	?	?
COc1ccc(NC(=O)CC2C(=O)N(c3ccc(C)cc3)C(=O)N2C2CCCC2)cc1 (configuration not stated)	i	i	nt	i	?
CCOc1ccc(NC(=O)CC2C(=O)N(c3ccc(C)cc3)C(=O)N2C2CCCCC2)cc1 (configuration not stated)	i	i	nt	?	18µM
CCOC(=O)c1ccc(NC(=O)CC2C(=O)N(c3ccccc3)C(=O)N2C2CCCCC2)cc1 (configuration not stated)	i	i	nt	16µM	26µM
CCC(=O)Nc1nnc(SCC(=O)NCc2ccc3c(c2)OCO3)s1	i	i	i	i	i
O=C(CCc1n[nH]c(=O)[nH]c1=O)N/N=C/c1ccco1	i	22µM	i	i	i
COc1cccc(/C=N/NC(=O)CCc2n[nH]c(=O)[nH]c2=O)c1O	i	i	i	?	i
CCn1c(O)c(C2=c3ccccc3=NC2=O)c2cc(Br)ccc21	i	i	i	12µM	6.5µM
COc1ccc(-c2cn3c(n2)sc2cc(C(=O)NCCCN4CCCCC4)ccc23)cc1	i	i	nt	0.73µM	1µM
COc1ccc(-c2cn3c(n2)sc2cc(C(=O)NCCCN4CCCCCC4)ccc23)cc1	i	i	nt	3.3µM	2.9µM
COc1ccc(-c2cn3c(n2)sc2cc(C(=O)NCc4cccc(F)c4)ccc23)cc1	i	i	nt	?	?
COc1ccc(-c2cn3c(n2)sc2cc(C(=O)Nc4ccc(C)c(C)c4)ccc23)cc1	i	i	nt	?	i
Cc1ccc(C)c(S(=O)(=O)Nc2nc(C)c(C(=O)Nc3ccccc3)s2)c1	i	i	i	?	i
Cc1cnc(CNc2ncncc2-c2cccc(NS(C)(=O)=O)c2)cn1	nt	nt	nt	i	i
CN(Cc1cnccn1)C(=O)CC1C(=O)NCCN1Cc1cccc(Oc2ccccc2)c1 (configuration not stated)	i	i	i	i	i
Cc1ccccc1CSc1nc2nc(C)c(Cc3ccccc3)c(C)n2n1	i	i	nt	16µM	i
Cc1ccccc1Cc1c(C)nc2nc(SCC(=O)N(C)c3ccccc3)nn2c1C	i	i	nt	?	23µM
Cc1ccc(Cc2c(C)nc3nc(SCC(=O)NCc4ccco4)nn3c2C)cc1	i	i	i	4.6µM	3.3µM
Cc1cccc(Cc2c(C)nc3nc(SCC(=O)NCc4ccco4)nn3c2C)c1	i	i	i	?	?
SMILES	miR-21 FLuc	TDP1 inh	uPA surface inh	DT40 TDP1 no CPT	TDP1 cell CPT
Cc1nc2nc(SCC(=O)N3CCOCC3)nn2c(C)c1Cc1ccccc1	i	i	i	i	?
Cc1ccccc1Cc1c(C)nc2nc(SCC(=O)NC(C)c3ccccc3)nn2c1C (configuration not stated)	i	i	nt	?	16µM
COc1ccc(N(C(=O)CNC(=O)c2ccco2)C(C(=O)NC2CCCC2)c2ccc(C)o2)cc1 (configuration not stated)	i	i[0.0935 µM]	i	i	i
COc1cccc(C(=O)CN(C(=O)c2ccc(Cl)cc2Cl)N2C(=O)c3ccccc3C2=O)c1	i	i	i	i	i
Cc1ccc(CN(C)C(=O)COc2ccc(S(=O)(=O)N3CCCC3)cc2[N+](=O)[O-])c(C)c1	nt	i	i	?	?
Cc1nc2nc(SCC(=O)NC(C)c3ccccc3)nn2c(C)c1Cc1c(F)cccc1Cl (configuration not stated)	i	i	nt	16µM	23µM
CCN(C(=O)CN1C(=O)NC2(CCCC2)C1=O)c1nc2c(C)cccc2s1	nt	nt	nt	13µM	?
CCN(C(=O)C1CSC2(C)CCC(=O)N12)c1nc2c(C)cccc2s1 (configuration not stated)	nt	i	i	i	?
Cc1ccc(NC(=O)NCCOCCn2c(=O)oc3ccccc32)c(C)c1	i	i	nt	5.8µM	4.6µM
Cc1ccc(NC(=O)NCCOCCn2c(=O)oc3ccccc32)cc1F	i	i	nt	5.8µM	5.8µM
Cc1ccc(NC(=O)NCCOCCn2c(=O)oc3ccccc32)cc1C	i	i	nt	4.1µM	5.8µM
CCOC(=O)c1ccc(NC(=O)NCCOCCn2c(=O)oc3ccccc32)cc1	i	i	nt	?	?
O=C(NCCOCCn1c(=O)oc2ccccc21)Nc1cccc(Cl)c1	i	i	nt	8.2µM	7.3µM
Cc1ccc2oc(=O)n(CCNC(=O)Nc3ccccc3C)c2c1	i	i	nt	i	i
CCC(Sc1ccc(Cl)cc1)C(=O)Nc1nnc(-c2cccc([N+](=O)[O-])c2)s1 (configuration not stated)	i	i	i	13µM	?
COc1ccc(-c2csc3ncnc(Cl)c23)cc1	i	i	i	?	?
Clc1nc(-c2ccccn2)nc2scc(-c3ccccc3)c12	i	i	10µM	?	?
CCOc1ccc2c(=O)c(Oc3ccccc3)c(C)oc2c1	i	i	i	21µM	?
Cc1oc2cc(OC(C)C(=O)O)ccc2c(=O)c1Oc1ccccc1 (configuration not stated)	i	i	i	i	i
Cc1c(-c2nsc(NC(=O)c3cccs3)n2)nnn1-c1ccc(Br)cc1	i	i	nt	?	?
CCCCN1C(C(=O)Nc2ncccn2)=C(O)c2ccccc2S1(=O)=O	i	nt	i	i	i
COCc1nnc(NC(=O)c2c(-c3c(Cl)cccc3Cl)noc2C)s1	i	i	i	?	13µM
Cc1onc(-c2ccccc2)c1C(=O)c1c[nH]c(C(=O)NCCCN2CCOCC2)c1	i	i	i	i	i
CC(NC(=O)Nc1nnc(C(F)(F)F)s1)(C(F)(F)F)C(F)(F)F	i	i	i	5.2µM	4.1µM
O=C(Nc1ccccc1C(=O)Nc1nnc(C(F)(F)F)s1)c1ccccc1Cl	?	i	i	16µM	?
COCCCNC(=O)c1cc(C(=O)c2c(-c3c(Cl)cccc3Cl)noc2C)c[nH]1	i	i	i	23µM	23µM
CC(=O)c1cc(-c2ccccc2)n(CCC(=O)Nc2cc(C)cc(C)c2)c1C	i	i	nt	?	?
CCN1C(=O)c2ccccc2Sc2ccc(C(=O)NCCCN3CCCCC3)cc21	i	i	i	i	i

Screens (PubChem)
